Earlier results as cited in paper PMC10907374, “G2019S selective LRRK2 kinase inhibitor abrogates mitochondrial DNA damage” (NPJ Parkinson's Disease, 2024).

Test system: LRRK2 kinase
Settings: cited from earlier work

SMILES: CNc1nc(Nc2cn(C(C)(C)C#N)nc2C)ncc1C(F)(F)F [DNL201]
- blood brain barrier crossing (humans, based on inhibitor concentrations in cerebrospinal fluid ref 15): able to cross the blood brain barrier
- lung function (single-ascending or multiple-ascending dose (10 days) cohorts, healthy volunteers or PD patients ref 15): did not seem to be impacted
